For this test, the target named is Diacylglycerol O-acyltransferase 1 (Homo sapiens, UniProt O75907).

Amino acid sequences for entries named in this document (tags omitted).
UniProt O75907, whole entry, looked up: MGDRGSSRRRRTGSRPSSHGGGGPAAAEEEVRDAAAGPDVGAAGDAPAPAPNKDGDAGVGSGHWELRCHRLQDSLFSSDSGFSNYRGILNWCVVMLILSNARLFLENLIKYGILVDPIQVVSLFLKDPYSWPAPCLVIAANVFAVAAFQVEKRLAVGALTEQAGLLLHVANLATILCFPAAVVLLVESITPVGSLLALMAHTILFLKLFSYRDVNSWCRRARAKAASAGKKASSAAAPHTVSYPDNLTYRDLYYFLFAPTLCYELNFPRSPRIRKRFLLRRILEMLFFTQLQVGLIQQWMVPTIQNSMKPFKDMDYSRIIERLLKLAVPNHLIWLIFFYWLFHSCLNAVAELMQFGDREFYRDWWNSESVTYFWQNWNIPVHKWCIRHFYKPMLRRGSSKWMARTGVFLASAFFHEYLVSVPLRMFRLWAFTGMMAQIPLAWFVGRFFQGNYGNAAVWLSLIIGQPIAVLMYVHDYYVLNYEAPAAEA

Results on one molecule are retold here after BindingDB's records for US10709718.

The IC50 is the concentration at which inhibition is half-maximal. `CCP(=O)(O)O[C@H]1CC[C@H](c2ccc(C3=Nc4c(N)ncnc4OC3(C)C)cc2)CC1` displayed an IC50 below 10 nM.
